High-throughput results deposited in PubChem BioAssay by National Center for Advancing Translational Sciences (NCATS).
Shown are actives, neighbours in structure and some others; about 0.67% of the full set was active somewhere.
gsp agonist: qHTS for Agonist of gsp, the Etiologic Mutation Responsible for Fibrous Dysplasia/McCune-Albright Syndrome: qHTS. gsp mutant cells, cAMP HTRF, 30 min. Potency, µM (titrated, usually from 76.9 µM), without a hit: at the top dose activation (cAMP increase), usual class: activators. hit rate 0.13% among 340,000; active = well fitted activation curve with a large enough effect; inconclusive = small, poorly fitted or top-dose-only effect, or another doubt; inactive = no such curve, though single readings can be large or run the other way; cell line not stated here;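 note: phosphodiesterase inhibitor Ro 20-1724 added with compounds to block cAMP breakdown; nearly all actives have a fitted effect of over 60% in size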
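Cells in DMEM/10% FBS with G418 were pretreated with compounds in DMSO plus […] (300 uM stock) for 30 min at 37C. cAMP was measured by HTRF (cAMP-d2 plus anti-cAMP antibody-K) after 30 min at room temperature.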
gsp antagonist: qHTS for Antagonists of gsp, the Etiologic Mutation Responsible for Fibrous Dysplasia/McCune-Albright Syndrome: qHTS | gsp-mutant cells, cAMP HTRF, 30 min | Potency, µM (titrated, usually from 76.9 µM), without a hit: at the top dose activity change, negative = inhibition, actives largely listed as inhibitors | hit rate 0.4% among 340,000 | AID 624288, 2012; calls by dose curve; cell line not stated here;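 note: intracellular cAMP measured with PDE inhibitor Ro 20-1724 present during compound exposure; % is set by controls: 0 for no effect and ±100 for the full control effect; nearly all actives have a fitted effect of over 65% in size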
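G418-selected cells were plated in DMEM/10% FBS for 16-24 h at 37C, then treated with compounds plus the PDE inhibitor […] (300 uM solution added) for 30 min at 37C. Intracellular cAMP was measured by HTRF after 30 min lysis at room temperature.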
ASM inhibitor: Inhibitors of Secretory Acid Sphingomyelinase (S-ASM): qHTS | Sphingomyelin phosphodiesterase (Homo sapiens), P17405 | placental ASM, HMU-PC fluorogenic substrate, 60 min | Potency, µM (highest dose often 57.5 µM), for inactives: at the top dose activity change, negative = inhibition, hits mostly inhibitors | hit rate 0.006% among 340,000; active = well fitted inhibition curve with a large enough effect; inconclusive = small, poorly fitted or top-dose-only effect; inactive = no such curve, though single readings can be large or run the other way
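HMU-PC0 cleavage (9 uM final) by human placental ASM, 60 min at 37 °C following 10 min compound exposure at RT; stopped at pH 10, fluorescence Ex 386/Em 447 nm.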
Rango dissoc inh: qHTS Assay for Inhibitors of RanGTP induced Rango (Ran-regulated importin-beta cargo) - Importin beta complex dissociation; Biochemical FRET Rango-importin beta, RanGTP-induced dissociation; Potency, µM (doses to about 46.1 µM), for the others: top-dose activity change, negative = inhibition; hit rate 0.071% among 340,000; note: % of control where 0% means no effect; nearly all actives have a fitted effect of over 45% in size
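FRET read at 45 min, room temperature: inhibitors block the CFP/YFP signal rise when RanGTP (0.6 uM Ran, 2 mM GTP, 0.2 uM RCC1) frees Rango (0.1 uM) from importin beta (0.25 uM). Pre-read after 5 min compound exposure flags interference.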
Rango-impB inh: qHTS Assay for Inhibitors of Rango (Ran-regulated importin-beta cargo) - Importin beta complex formation | Potency, µM (doses to about 92.2 µM), inactives show top-dose inhibition of complex formation | AID 540263, 2011 | hit rate 0.031% among 340,000 | Importin subunit beta-1 (Homo sapiens), Q14974 | Rango CFP/YFP FRET sensor + importin beta, 45 min;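 note: 0% = DMSO wells and 100% = buffer wells lacking importin beta; nearly all actives have a fitted effect of over 15% in size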
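FRET biosensor (snurportin 1 IBB flanked by EYFP and cerulean), 50 nM, with compound 5 min, then 0.125 microM importin beta in PBS, 1 mM DTT, 0.02% Tween-20, 0.1% BSA. CFP/YFP ratio read after 45 min at room temperature; pre-read flags interference.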
An asterisk follows results filed as active; [ ] = another dose, or the depositor's remark. Unless noted, calls come from the whole dose curve. Potency is the fitted concentration of half-maximal effect.

By UniProt entry, the sequences of proteins in these tests, tags left out. Residues count along the entry.
Sphingomyelin phosphodiesterase (Homo sapiens), P17405, UniProt P17405, 47-631 limits assumed: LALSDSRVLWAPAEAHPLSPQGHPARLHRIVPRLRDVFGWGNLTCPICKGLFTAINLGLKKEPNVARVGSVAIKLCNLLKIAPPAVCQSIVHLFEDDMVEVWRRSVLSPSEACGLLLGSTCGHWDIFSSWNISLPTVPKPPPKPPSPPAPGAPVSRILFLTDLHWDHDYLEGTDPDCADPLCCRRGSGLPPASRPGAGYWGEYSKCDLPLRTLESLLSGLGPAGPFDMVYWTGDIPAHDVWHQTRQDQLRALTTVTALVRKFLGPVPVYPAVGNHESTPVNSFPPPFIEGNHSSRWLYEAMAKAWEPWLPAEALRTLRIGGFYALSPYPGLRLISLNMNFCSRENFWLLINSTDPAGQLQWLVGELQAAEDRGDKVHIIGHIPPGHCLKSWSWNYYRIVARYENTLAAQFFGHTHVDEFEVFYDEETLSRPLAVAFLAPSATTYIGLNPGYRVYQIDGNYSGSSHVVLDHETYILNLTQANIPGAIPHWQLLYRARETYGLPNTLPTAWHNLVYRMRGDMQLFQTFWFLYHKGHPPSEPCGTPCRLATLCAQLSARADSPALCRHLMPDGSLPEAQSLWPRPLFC
Importin subunit beta-1 (Homo sapiens), Q14974, UniProt Q14974, whole entry, looked up: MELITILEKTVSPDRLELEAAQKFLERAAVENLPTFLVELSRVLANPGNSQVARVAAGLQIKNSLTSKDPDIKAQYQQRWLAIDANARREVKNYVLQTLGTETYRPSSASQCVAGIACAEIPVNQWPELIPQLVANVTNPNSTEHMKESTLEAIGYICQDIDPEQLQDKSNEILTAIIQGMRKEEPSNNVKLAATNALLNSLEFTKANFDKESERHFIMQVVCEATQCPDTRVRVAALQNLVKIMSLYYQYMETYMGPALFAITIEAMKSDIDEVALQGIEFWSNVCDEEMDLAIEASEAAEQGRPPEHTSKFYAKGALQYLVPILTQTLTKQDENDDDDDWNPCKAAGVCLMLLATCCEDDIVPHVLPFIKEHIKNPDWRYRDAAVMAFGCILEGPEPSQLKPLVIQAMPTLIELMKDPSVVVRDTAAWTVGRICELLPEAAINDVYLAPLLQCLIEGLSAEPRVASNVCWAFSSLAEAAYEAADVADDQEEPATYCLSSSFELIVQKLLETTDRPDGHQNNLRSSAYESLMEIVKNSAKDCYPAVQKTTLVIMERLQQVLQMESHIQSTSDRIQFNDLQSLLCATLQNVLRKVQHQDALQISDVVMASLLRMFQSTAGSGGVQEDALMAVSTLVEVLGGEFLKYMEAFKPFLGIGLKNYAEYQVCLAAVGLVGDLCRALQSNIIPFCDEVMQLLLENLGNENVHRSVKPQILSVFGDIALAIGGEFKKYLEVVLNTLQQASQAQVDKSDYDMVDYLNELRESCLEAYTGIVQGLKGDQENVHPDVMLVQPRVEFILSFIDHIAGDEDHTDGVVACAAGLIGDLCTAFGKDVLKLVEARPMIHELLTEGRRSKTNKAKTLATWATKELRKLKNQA

Screening COCC(C)NC(=O)CSc1nnc(-c2cccc(S(=O)(=O)N3CCCCC3)c2)o1 (stereo not drawn) returned gsp agonist 10%[15.4 µM], gsp antagonist 11µM*, ASM inhibitor 1%, Rango dissoc inh -25% and Rango-impB inh 2%.
For CC(C)CNC(=O)CSc1nnc(-c2cccc(S(=O)(=O)N3CCCCC3)c2)o1 the results were gsp agonist 1%, gsp antagonist -13%, ASM inhibitor -2%, Rango dissoc inh 10% and Rango-impB inh 4%.
For O=C(O)c1cccc(-n2cccc2C=C2C(=O)c3ccccc3C2=O)c1 the results were gsp agonist -16%[15.4 µM], gsp antagonist 35µM*, ASM inhibitor -6%, Rango dissoc inh -16% and Rango-impB inh inconclusive.
`O=C(O)c1cccc(-n2cccc2/C=C2/NC(=O)N(c3ccc(Cl)cc3)C2=O)c1` gave gsp agonist -15%[15.4 µM], gsp antagonist -12%, ASM inhibitor 2%, Rango dissoc inh 16µM* and Rango-impB inh inconclusive.
O=C(O)c1cccc(-n2cccc2/C=C2/NC(=O)N(c3cccc(Cl)c3)C2=O)c1 was read as gsp agonist -4%[15.4 µM], gsp antagonist -6%, ASM inhibitor 19%, Rango dissoc inh 8% and Rango-impB inh -1%.
Cc1oc(-c2ccccc2Cl)nc1CSCC(=O)O was read as gsp agonist 6%, gsp antagonist -11%, ASM inhibitor 1%, Rango dissoc inh -4% and Rango-impB inh 3%.
For Cc1cc(Cc2cc(C)c(O)c(CO)c2)cc(CO)c1O the results were gsp agonist -2%, gsp antagonist 3%, ASM inhibitor 2%, Rango dissoc inh 9% and Rango-impB inh 65µM*.
`Cc1cc(Cc2ccc(N)c(C)c2)ccc1N` gave gsp agonist -13%[15.4 µM], gsp antagonist 10%, ASM inhibitor 2%, Rango dissoc inh -8% and Rango-impB inh 2%.
For CC(C(=O)O)N1C(=O)/C(=C/c2cccn2C)SC1=S (stereo not drawn) the results were gsp agonist -53%, gsp antagonist 0%, ASM inhibitor 0%, Rango dissoc inh 2.6µM* and Rango-impB inh inconclusive.
`COc1cc(CNCc2ccncc2)cc(Br)c1OCc1ccccc1F` gave gsp agonist -42%, gsp antagonist 32µM*, ASM inhibitor -4%, Rango dissoc inh 0% and Rango-impB inh -1%.
`CCOC(=O)c1c(NC(=O)C(C)OC(=O)C2=COCCO2)sc2c1CCCC2` (stereo not drawn) gave gsp agonist -16%, gsp antagonist 22µM*, ASM inhibitor -6%, Rango dissoc inh -2% and Rango-impB inh 1%.
`CCOC(=O)c1c(NC(=O)c2ccc(N3C(=O)[C@@H]4[C@H](C3=O)[C@H]3C=C[C@@H]4C3)cc2)sc2c1CCCC2` gave gsp agonist -23%, gsp antagonist -1%, ASM inhibitor 22%, Rango dissoc inh 0% and Rango-impB inh -2%.
`CCOC(=O)c1c(NC(=O)c2ccc(-n3cnnn3)cc2)sc2c1CCCC2` gave gsp agonist 25%, gsp antagonist -14%, ASM inhibitor 0%, Rango dissoc inh 21µM* and Rango-impB inh -7%.
Screening CCOC(=O)c1c(NC(=O)C(C)OC(=O)c2ccc(NC(=O)CC#N)cc2)sc2c1CCCC2 (stereo not drawn) returned gsp agonist 4%, gsp antagonist -15%, ASM inhibitor -17%, Rango dissoc inh -20% and Rango-impB inh inconclusive.
CC(C)Cn1c(N)c(C(=O)COC(=O)c2ccc(Br)cc2)c(=O)n(C)c1=O was read as gsp agonist inconclusive, gsp antagonist 35µM*, ASM inhibitor -15%, Rango dissoc inh 10% and Rango-impB inh 0%.
CC(C)Cn1c(N)c(C(=O)COC(=O)/C=C/c2ccccc2)c(=O)n(C)c1=O was read as gsp agonist 4%[15.4 µM], gsp antagonist 35µM*, ASM inhibitor -5%, Rango dissoc inh -10% and Rango-impB inh -1%.
`Cc1ccccc1OCCC(=O)OCC(=O)c1c(N)n(CC(C)C)c(=O)n(C)c1=O` gave gsp agonist -2%[15.4 µM], gsp antagonist 32µM*, Rango dissoc inh 9% and Rango-impB inh 4%.
For CC(C)Cn1c(N)c(C(=O)COC(=O)c2ccc(Cl)cc2)c(=O)n(C)c1=O the results were gsp agonist -8%, gsp antagonist inconclusive, ASM inhibitor -13%, Rango dissoc inh 0% and Rango-impB inh -3%.
`CC(C)Cn1c(N)c(C(=O)COC(=O)c2ccncc2)c(=O)n(C)c1=O` gave gsp agonist 3%, gsp antagonist 5%, ASM inhibitor 0%, Rango dissoc inh -1% and Rango-impB inh -1%.
`CC(C)Cn1c(N)c(C(=O)COC(=O)[C@@H]2CCCN2C(=O)c2cccs2)c(=O)n(C)c1=O` gave gsp agonist 13µM*, gsp antagonist -7%, ASM inhibitor 3%, Rango dissoc inh -3% and Rango-impB inh 0%.
Screening COc1ccc(Cc2nnc(NC(=O)C(C)(C)C)s2)cc1 returned gsp agonist 7%[15.4 µM], gsp antagonist 13%, ASM inhibitor 0%, Rango dissoc inh -7% and Rango-impB inh -3%.
Screening CC1C(=O)N2CCCc3cc(S(=O)(=O)Nc4ccccc4C(N)=O)cc1c32 (stereo not drawn) returned gsp agonist 5%, gsp antagonist 6%, ASM inhibitor 8%, Rango dissoc inh -27% and Rango-impB inh -4%.
`O=c1[nH]ncc2c3ccccc3n(Cc3cccc(Cl)c3)c12` gave gsp agonist -21%[15.4 µM], gsp antagonist 6%, ASM inhibitor 32µM*, Rango dissoc inh 5% and Rango-impB inh inconclusive.
O=c1[nH]ncc2c3ccccc3n(Cc3ccc(F)cc3)c12 was read as gsp agonist -25%, gsp antagonist 12%, ASM inhibitor -1%, Rango dissoc inh 4% and Rango-impB inh -1%.
Screening Cc1c(C)c2ccc(OC(C)C(=O)NCc3ccccn3)cc2oc1=O (stereo not drawn) returned gsp agonist 12%, gsp antagonist -1%, ASM inhibitor 86%, Rango dissoc inh -6% and Rango-impB inh 0%.
Screening O=[N+]([O-])c1ccc2nc(/C=C/c3ccc(Cl)cc3)[nH]c2c1 returned gsp agonist -17%, gsp antagonist 35µM*, ASM inhibitor -5%, Rango dissoc inh 0% and Rango-impB inh 3%.

Three compounds picked at random from those above, as already listed:
Screening O=[N+]([O-])c1ccc2nc(/C=C/c3ccc(Cl)cc3)[nH]c2c1 returned gsp agonist -17%, gsp antagonist 35µM*, ASM inhibitor -5%, Rango dissoc inh 0% and Rango-impB inh 3%.
Screening CC1C(=O)N2CCCc3cc(S(=O)(=O)Nc4ccccc4C(N)=O)cc1c32 (stereo not drawn) returned gsp agonist 5%, gsp antagonist 6%, ASM inhibitor 8%, Rango dissoc inh -27% and Rango-impB inh -4%.
Screening COc1ccc(Cc2nnc(NC(=O)C(C)(C)C)s2)cc1 returned gsp agonist 7%[15.4 µM], gsp antagonist 13%, ASM inhibitor 0%, Rango dissoc inh -7% and Rango-impB inh -3%.
